Measurements as given in publication PMC10318456, “Selective inhibitors of the PSEN1–gamma-secretase complex” (The Journal of Biological Chemistry, 2023).

Experiments:
[1] = molecular target: PSEN1-APH1B γ-secretase complex (Homo sapiens, UniProt P49768); test: Aβ40 secretion by MEF cell line expressing only PSEN1-APH1B γ-secretase (APP-C99-GFP reporter); type: cell-based
[2] = tested on: PSEN1 versus PSEN2 γ-secretase complexes; test: Comparison of the four MEF cell lines: selectivity between γ-secretase complexes (IC50 ratios); type: cell-based, human
[3] = molecular target: PSEN1 T147A–APH1A γ-secretase complex (Homo sapiens, UniProt P49768, T147A); test: Aβ40 secretion, MEF cell pool restored with PSEN1 T147A–APH1A; details: read-out: IC50 μM (95% CI μM), Aβ40 secretion; PSEN1 T147A (TM2)–APH1A cell pool; N = 3 to 4; mean (95% CI); decimal comma
[4] = molecular target: PSEN1 F388A–APH1A γ-secretase complex (Homo sapiens, UniProt P49768, F388A); test: Aβ40 secretion, MEF cell pool restored with PSEN1 F388A–APH1A; details: decimal comma
[5] = molecular target: PSEN1 I387A–APH1A γ-secretase complex (Homo sapiens, UniProt P49768, I387A); test: Aβ40 secretion, MEF cell pool restored with PSEN1 I387A–APH1A; details: decimal comma
[6] = molecular target: PSEN1 S169A–APH1A γ-secretase complex (Homo sapiens, UniProt P49768, S169A); test: Aβ40 secretion, MEF cell pool restored with PSEN1 S169A–APH1A; details: decimal comma
[7] = molecular target: PSEN1 W165A–APH1A γ-secretase complex (Homo sapiens, UniProt P49768, W165A); test: Aβ40 secretion, MEF cell pool restored with PSEN1 W165A–APH1A; details: decimal comma
[8] = molecular target: PSEN1 M233A–APH1A γ-secretase complex (Homo sapiens, UniProt P49768, M233A); test: Aβ40 secretion, MEF cell pool restored with PSEN1 M233A–APH1A; details: decimal comma
[9] = molecular target: PSEN1 L173A–APH1A γ-secretase complex (Homo sapiens, UniProt P49768, L173A); test: Aβ40 secretion, MEF cell pool restored with PSEN1 L173A–APH1A; details: decimal comma
[10] = molecular target: PSEN1 M146A–APH1A γ-secretase complex (Homo sapiens, UniProt P49768, M146A); test: Aβ40 secretion, MEF cell pool restored with PSEN1 M146A–APH1A; details: decimal comma
[11] = molecular target: PSEN1 L172A–APH1A γ-secretase complex (Homo sapiens, UniProt P49768, L172A); test: Aβ40 secretion, MEF cell pool restored with PSEN1 L172A–APH1A
[12] = molecular target: PSEN1 I168A–APH1A γ-secretase complex (Homo sapiens, UniProt P49768, I168A); test: Aβ40 secretion, MEF cell pool restored with PSEN1 I168A–APH1A; details: decimal comma
[13] = molecular target: PSEN1 I229A–APH1A γ-secretase complex (Homo sapiens, UniProt P49768, I229A); test: Aβ40 secretion, MEF cell pool restored with PSEN1 I229A–APH1A; details: decimal comma
[14] = molecular target: PSEN1 WT–APH1A γ-secretase complex (Homo sapiens, UniProt P49768); test: Aβ40 secretion, MEF cell pool restored with PSEN1 WT–APH1A; details: decimal comma

In the case of `O=S(=O)(c1ccc(Cl)cc1)C1(c2cc(F)ccc2F)CCCCC1`, the “fold less potency for PSEN1–APH1B” value ([1]; compared with MRK-560) is reported as 60 fold, the IC50 ([1]; read-out: IC50, Aβ40 peptides, MEF PSEN1-APH1B cell line, 8 h, Beerse site unless otherwise indicated) is reported as 25.8 nM and the “selectivity for PSEN1 complexes versus PSEN2 complexes” value [2] is reported as 11–41 fold.
For `CC(C)C[C@H](NC(=O)[C@H](Cc1ccccc1)C[C@@H](O)[C@H](Cc1ccccc1)NC(=O)OC(C)(C)C)C(=O)N[C@@H](Cc1ccccc1)C(=O)O` (single isomer, unassigned), the IC50 [3] was 27.9 µM, the “IC50 fold change to WT” value ([4]; PSEN1 F388A–APH1A cell pool) was 1,782 fold and the IC50 ([4]; read-out: IC50 μM (95% CI μM), Aβ40 secretion, PSEN1 F388A (TM7)–APH1A cell pool, N = 3 to 4, mean (95% CI)) was 0.838 µM. The “IC50 fold change to WT” value ([5]; PSEN1 I387A–APH1A cell pool) was 1,584 fold, the IC50 ([5]; read-out: IC50 μM (95% CI μM), Aβ40 secretion, PSEN1 I387A (TM7)–APH1A cell pool, N = 3 to 4, mean (95% CI)) was 0.745 µM and the “IC50 fold change to WT” value ([6]; PSEN1 S169A–APH1A cell pool) was 0,978 fold. For the same compound, the IC50 ([6]; read-out: IC50 μM (95% CI μM), Aβ40 secretion, PSEN1 S169A (TM3)–APH1A cell pool, N = 3 to 4, mean (95% CI)) was 0.46 µM, the “IC50 fold change to WT” value ([7]; PSEN1 W165A–APH1A cell pool) was 1,607 fold and the IC50 ([7]; read-out: IC50 μM (95% CI μM), Aβ40 secretion, PSEN1 W165A (TM3)–APH1A cell pool, N = 3 to 4, mean (95% CI)) was 0.755 µM. For the same compound, the “IC50 fold change to WT” value ([8]; PSEN1 M233A–APH1A cell pool) was 0,955 fold, the IC50 ([8]; read-out: IC50 μM (95% CI μM), Aβ40 secretion, PSEN1 M233A (TM5)–APH1A cell pool, N = 3 to 4, mean (95% CI)) was 0.449 µM and the “IC50 fold change to WT” value ([9]; PSEN1 L173A–APH1A cell pool) was 2,399 fold. The IC50 ([9]; read-out: IC50 μM (95% CI μM), Aβ40 secretion, PSEN1 L173A (TM3)–APH1A cell pool, N = 3 to 4, mean (95% CI)) was 1.13 µM, the “IC50 fold change to WT” value ([10]; PSEN1 M146A–APH1A cell pool) was 1,941 fold and the IC50 ([10]; read-out: IC50 μM (95% CI μM), Aβ40 secretion, PSEN1 M146A (TM2)–APH1A cell pool, N = 3 to 4, mean (95% CI)) was 0.913 µM. For the same compound, the “increase in binding affinity by alanine substitution of L172” value ([11]; PSEN1 L172A versus WT) was 1.5 fold, the “IC50 fold change to WT” value ([11]; PSEN1 L172A–APH1A cell pool, decimal comma) was 0,640 fold and the IC50 ([11]; read-out: IC50 μM (95% CI μM), Aβ40 secretion, PSEN1 L172A (TM3)–APH1A cell pool, N = 3 to 4, mean (95% CI), decimal comma) was 0.301 µM. For the same compound, the “IC50 fold change to WT” value ([12]; PSEN1 I168A–APH1A cell pool) was 0,671 fold, the IC50 ([12]; read-out: IC50 μM (95% CI μM), Aβ40 secretion, PSEN1 I168A (TM3)–APH1A cell pool, N = 3 to 4, mean (95% CI)) was 0.315 µM and the “IC50 fold change to WT” value [13] was 2,880 fold. The “IC50 fold change to WT” value ([14]; PSEN1 WT–APH1A cell pool (reference)) was 1 fold and the IC50 ([14]; read-out: IC50 μM (95% CI μM), Aβ40 secretion, PSEN1 WT–APH1A cell pool, N = 3 to 4, mean (95% CI)) was 0.47 µM.
